# PglD inh – PglD (C. jejuni) enzyme inhibition; purified PglD enzyme, DTNB colorimetric CoA detection; inhibition, % at 12.5 µM; 360,000 tested, 0.098% active; in the data active means inhibition above about 16%, passing the limit was not always enough
# FGF22 binding – binders of recombinant human FGF22 by thermal shift | AID 651658 | activity (Tm shift, normalised), % at 9.99 µM | 340,000 tested, 1.5% active | SYPRO orange fluorescence; percent of sucrose octasulfate shift, DMSO zero;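 active means mean Tm shift, scaled 0 neutral to 100 positive control, at about 1.3% or above, every replicate too, limit read from the data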
# ERp5 inh – ERp5 (human) disulfide isomerase inhibition; ERp5 insulin aggregation, absorbance 650 nm, 90 min; Q15084; inhibition, % at 9.99 µM; AID 651711; 350,000 tested, 0.05% active;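 active means mean replicate inhibition above about 25%, with every replicate also reaching it, limit read from the data, passing the limit was not always enough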
# ARNT-TACC3 inh – disrupts binding between human ARNT and TACC3 | AlphaScreen His-ARNT PAS-B/GST-TACC3 binding, luminescence; TACC3 fragment carries E629A point mutation | Q9Y6A5 | inhibition, % at 9.99 µM | 390,000 tested, 0.66% active;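 active means mean inhibition of replicates at least 50% and at least half of replicates each reaching 50%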;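 further: 0% = complete ARNT plus TACC3 wells and 100% = ARNT alone without TACC3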
# UUG fidelity – yeast start codon fidelity modulation | S. cerevisiae UUG-firefly luciferase reporter, luminescence/redox ratio | activity score, % at 18.7 µM | hit rate 0.13% among 350,000 | AID 602363;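 active means replicate mean at a twofold rise or more, about +100% in these data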;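 further: firefly luciferase made from a UUG start codon reports start codon fidelity; reporter light over untreated wells divided by growth signal over untreated wells; some hits fall short of that in this replicate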
# PDI inh – PDI (human) enzyme inhibition | P07237 | PDI insulin aggregation turbidity, A650, 90 min | 350,000 tested, 0.052% active | AID 588391 | inhibition, % at 10 µM;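 active means mean inhibition across replicates of 30% or more, whatever share of single replicates reach that level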
# * hit, by the source's call; nt = not tested or not shown; ! = not active in a repeat. Shown are actives, neighbours in structure and some others; about 1.9% of the full set was active somewhere.
nr | Compound | PglD inh | FGF22 binding | ERp5 inh | ARNT-TACC3 inh | UUG fidelity | PDI inh
1 | Cc1ccc(C(=O)N/C(=C\c2ccc(-c3ccccc3[N+](=O)[O-])o2)C(=O)NCCN(C)C)cc1 | -6.6 | -0.1 | 7.6 | 21.5* | -11.7 | -2.3
2 | C/C(=N\NC(=O)c1ccccc1NC(=O)c1ccc(Cl)cc1)c1ccncc1 | nt | 43.0* | -2.4 | 0.1 | nt | -1.3
3 | C[C@H]1CN([C@@H](C)CO)C(=O)Cc2cc(NS(C)(=O)=O)ccc2O[C@H]1CN(C)S(=O)(=O)c1ccc(F)cc1 | 2.4 | -0.3 | -7.0 | -2.1 | -2.6 | nt
4 | COc1ccc2c(c1)CCC/C2=N/OC(=O)c1ccccc1OC | nt | 44.0* | 0.8 | 7.1 | nt | -3.1
5 | C[C@H](CO)N1C[C@H](C)[C@H](CN(C)Cc2ccc(Cl)c(Cl)c2)Oc2ccc(NC(=O)Nc3ccc4c(c3)OCO4)cc2C1=O | 12.0 | 0.0 | -2.7 | 14.4 | -1.8 | nt
6 | NCCC(=O)NCCc1cnc[nH]1 | 2.8 | 0.1 | 3.2 | nt | -2.8 | 3.7
7 | NCCc1cnc[nH]1 | -5.4 | 0.2 | -5.2 | 73.2*! | -25.2 | 5.6
8 | C[C@H]1CN([C@@H](C)CO)S(=O)(=O)c2ccc(C3=CCCCC3)cc2O[C@@H]1CN(C)C(=O)Cc1cccnc1 | 1.6 | -0.1 | 22.8 | 2.3 | -10.1 | nt

# Further results
nr | Compound | PglD inh | FGF22 binding | ERp5 inh | ARNT-TACC3 inh | UUG fidelity | PDI inh
9 | O=[N+]([O-])c1cc(C(F)(F)F)ccc1N1CCN(CCO)CC1 | nt | 43.1* | 1.5 | -6.1 | nt | 0.5
10 | O=[N+]([O-])c1cc(C(F)(F)F)ccc1N1CCCC(O)C1 (stereo not given) | nt | 42.9* | 2.4 | -3.4 | nt | -11.2
11 | O=C(C1CCC1)N1CCN(c2ccc(C(F)(F)F)cc2[N+](=O)[O-])CC1 | -6.4 | 0.0 | 0.5 | 3.6 | 9.2 | -1.5
12 | CCOC(=O)c1cc(-c2ccc(/C=N\n3cnnc3)o2)ccc1Cl | 25.2* | nt | nt | -0.4 | -28.2 | -0.2
13 | CCc1ccc2[nH]c(=O)c(C3C(C#N)=C(N)Oc4c3ccc3cccnc43)cc2c1 (stereo not given) | -2.5 | nt | nt | 47.7* | -28.3 | -5.8
14 | CCOc1cccc(C2C(C#N)=C(N)Oc3cc(C)[nH]c(=O)c32)c1OCC (stereo not given) | nt | 0.1 | 1.0 | 3.5 | nt | -1.3
15 | COc1cccc(CNC(=O)C[C@H]2CC[C@@H](NC(=O)C3CCOCC3)[C@@H](CO)O2)c1 | 3.9 | -0.1 | -1.3 | -10.9 | -5.5 | nt
16 | O=C(CNC(=O)c1ccccc1)OCc1nc2ccccc2s1 | nt | 43.3* | -3.7 | nt | nt | 1.2

# More entries.
nr | Compound | PglD inh | FGF22 binding | ERp5 inh | ARNT-TACC3 inh | UUG fidelity | PDI inh
17 | CC1CCCC(NC(=O)COC(=O)CCC(=O)c2cccs2)C1C (stereo not given) | -0.7 | 0.2 | -0.1 | -4.3 | 10.1 | -28.7
18 | CC1CCCC(NC(=O)COC(=O)CCC(=O)c2ccc(F)cc2)C1C (stereo not given) | -2.7 | 44.3* | 0.1 | -2.8 | 0.5 | -2.6
19 | CC1CCCC(NC(=O)COC(=O)c2ccccc2[N+](=O)[O-])C1C (stereo not given) | nt | 43.7* | 1.4 | 22.7 | nt | 1.8
20 | CO[C@H]1CN(C)C(=O)c2cc(NC(=O)c3cc(C)on3)ccc2OC[C@@H](C)N(CC2CC2)C[C@@H]1C | 1.1 | -0.2 | 4.0 | -5.5 | nt | nt
21 | CO[C@@H](CN(C)C(=O)C1CCOCC1)[C@H](C)CN(C(=O)Nc1ccc(C(F)(F)F)cc1)[C@@H](C)CO | -1.6 | 0.3 | 2.0 | 6.7 | nt | nt
22 | Cc1noc(C)c1NC(=O)N(C)C[C@H]1Oc2ccc(NS(C)(=O)=O)cc2CC(=O)N([C@@H](C)CO)C[C@H]1C | 2.9 | -0.1 | nt | -3.4 | -22.1 | nt
23 | O=C(NC(=S)Nc1nc(-c2ccccc2)cs1)c1cncc(Br)c1 | 3.8 | 0.3 | 0.1 | -16.3 | -6.8 | -4.7
24 | O=C(NC(=S)Nc1nc(-c2ccccc2)cs1)c1cccnc1 | nt | 43.4* | 3.1 | 0.0 | nt | -3.8

# The list continues.
nr | Compound | PglD inh | FGF22 binding | ERp5 inh | ARNT-TACC3 inh | UUG fidelity | PDI inh
25 | CC=Cc1ccc2n(c1=O)C[C@H]1[C@H](CO)[C@@H](C(=O)N[C@@H](C)c3ccccc3)[C@@H]2N1Cc1ccncc1 (mixture of isomers) | 1.7 | 15.8* | 3.0 | 15.6 | nt | nt
26 | CC=Cc1ccc2n(c1=O)C[C@H]1[C@H](CO)[C@@H](C(=O)NCc3ccccc3)N(C)[C@@H]21 (mixture of isomers) | -1.0 | 16.6* | 1.1 | -1.1 | 5.2 | nt
27 | CC=Cc1ccc2n(c1=O)C[C@@H]1[C@@H](CO)[C@H](C(=O)NCc3ccc(F)cc3)N(C)[C@H]21 (mixture of isomers) | 1.1 | -0.3 | -2.0 | 2.4 | nt | nt
28 | C[C@@H]1CN([C@H](C)CO)C(=O)c2cccc(NC(=O)C3CC3)c2O[C@H]1CN(C)S(=O)(=O)c1ccc(F)cc1 | 0.1 | nt | -1.1 | -7.7 | 10.8 | nt
29 | O=C1C2CCCCC2C(=O)N1Cc1ccccc1 (stereo not given) | nt | 43.5* | 0.9 | 2.3 | nt | 2.8
30 | COC(=O)NC1(C(F)(F)F)C(=O)Nc2c1c(=O)n(C)c(=O)n2C (stereo not given) | -1.0 | 42.9* | 0.5 | -2.0 | -8.6 | 7.9
31 | O=C(C[C@@H]1CC[C@H](NC(=O)Cc2ccccn2)[C@H](CO)O1)NCCc1ccccc1 | 1.5 | -0.3 | nt | -5.2 | 0.9 | nt
32 | CSc1ncc(C(=O)O)c(C)n1 | 3.1 | 0.0 | -1.1 | -4.3 | -20.9 | -6.6

# Additional compounds
nr | Compound | PglD inh | FGF22 binding | ERp5 inh | ARNT-TACC3 inh | UUG fidelity | PDI inh
33 | CSc1ncc(C(C)=O)c(C)n1 | nt | 2.5* | 3.6 | -1.2 | nt | -1.5
34 | Cc1ccc(S(=O)(=O)N2C[C@H]3[C@H]4C(=O)N(c5ccccc5)C(=O)[C@H]4C[C@H](OC(=O)NCc4ccccc4)[C@@]3(O)C2)cc1 | 3.0 | 42.9* | -7.4 | nt | 22.0 | 1.2
35 | CCCn1c(SCC(=O)Nc2cc(Cl)ccc2OC)n[nH]c1=O | nt | nt | nt | -6.5 | nt | 4.3
36 | CCCn1c(SCC(=O)Nc2cc(Cl)ccc2Cl)n[nH]c1=O | 4.2 | 43.1* | -1.6 | -4.1 | 6.5 | -3.8
37 | COc1ccc(OC)c(N2C(=O)c3cccnc3C2=O)c1 | -0.7 | 0.1 | 6.1 | 46.7* | -14.2 | 2.6
38 | COc1ccc(Cl)cc1N1C(=O)c2cccnc2C1=O | 0.1 | 0.2 | -0.2 | -0.6 | -4.2 | -4.7
39 | Cc1ccc(C)c(SCC(=O)OCC(=O)NCc2ccccc2)c1 | 3.0 | 44.1* | -2.6 | nt | 78.0 | 24.5
40 | Cc1ccc(C)c(SCC(=O)NC(=O)NCc2ccccc2)c1 | -1.1 | nt | nt | 16.2 | -4.5 | 7.3

# Going on with the list:
nr | Compound | PglD inh | FGF22 binding | ERp5 inh | ARNT-TACC3 inh | UUG fidelity | PDI inh
41 | N#C[C@H]1[C@@H](c2ccccc2)[C@@H](CO)N1C(=O)Cc1ccccn1 | -1.2 | 0.1 | 6.3 | 5.8 | 4.3 | nt
42 | C/C=C/c1ccc([C@@H]2[C@H](CO)N(Cc3ccccn3)[C@H]2CNC(=O)CC)cc1 | 2.5 | 0.7 | -5.0 | 30.0* | -24.0 | nt
43 | C/C=C/c1ccc([C@@H]2[C@@H](C#N)N(C(=O)Cc3ccccn3)[C@@H]2CO)cc1 | -6.1 | -0.2 | 1.2 | 45.8* | -0.7 | nt
44 | O=C(Cc1ccc([N+](=O)[O-])cc1)NCc1ccccn1 | nt | 43.4* | 0.2 | 2.3 | nt | 0.2
45 | Cc1cc2cc(CNC(=O)c3cccc([N+](=O)[O-])c3)ccc2n1C | -6.0 | 0.1 | 0.1 | 9.4 | -21.4 | nt
46 | Cc1cc2cc(CNC(=O)Cc3ccc([N+](=O)[O-])cc3)ccc2n1C | nt | 43.5* | 6.6 | 0.7 | nt | -3.0

# Quoted at random: 4 compounds from above, in no set order.
nr | Compound | PglD inh | FGF22 binding | ERp5 inh | ARNT-TACC3 inh | UUG fidelity | PDI inh
45 | Cc1cc2cc(CNC(=O)c3cccc([N+](=O)[O-])c3)ccc2n1C | -6.0 | 0.1 | 0.1 | 9.4 | -21.4 | nt
41 | N#C[C@H]1[C@@H](c2ccccc2)[C@@H](CO)N1C(=O)Cc1ccccn1 | -1.2 | 0.1 | 6.3 | 5.8 | 4.3 | nt
46 | Cc1cc2cc(CNC(=O)Cc3ccc([N+](=O)[O-])cc3)ccc2n1C | nt | 43.5* | 6.6 | 0.7 | nt | -3.0
42 | C/C=C/c1ccc([C@@H]2[C@H](CO)N(Cc3ccccn3)[C@H]2CNC(=O)CC)cc1 | 2.5 | 0.7 | -5.0 | 30.0* | -24.0 | nt
